Drawing on ChEMBL document CHEMBL6182921, “Structural Optimization of Next-Generation TRK Inhibitors against Acquired Drug Resistance Mutations for the Treatment of Solid Tumors” (J Med Chem, 2025), this text covers inhibition for one molecule.

Sequences of proteins named here, by UniProt entry; tags and fusion partners are left off.
UniProt Q16288, whole entry, looked up: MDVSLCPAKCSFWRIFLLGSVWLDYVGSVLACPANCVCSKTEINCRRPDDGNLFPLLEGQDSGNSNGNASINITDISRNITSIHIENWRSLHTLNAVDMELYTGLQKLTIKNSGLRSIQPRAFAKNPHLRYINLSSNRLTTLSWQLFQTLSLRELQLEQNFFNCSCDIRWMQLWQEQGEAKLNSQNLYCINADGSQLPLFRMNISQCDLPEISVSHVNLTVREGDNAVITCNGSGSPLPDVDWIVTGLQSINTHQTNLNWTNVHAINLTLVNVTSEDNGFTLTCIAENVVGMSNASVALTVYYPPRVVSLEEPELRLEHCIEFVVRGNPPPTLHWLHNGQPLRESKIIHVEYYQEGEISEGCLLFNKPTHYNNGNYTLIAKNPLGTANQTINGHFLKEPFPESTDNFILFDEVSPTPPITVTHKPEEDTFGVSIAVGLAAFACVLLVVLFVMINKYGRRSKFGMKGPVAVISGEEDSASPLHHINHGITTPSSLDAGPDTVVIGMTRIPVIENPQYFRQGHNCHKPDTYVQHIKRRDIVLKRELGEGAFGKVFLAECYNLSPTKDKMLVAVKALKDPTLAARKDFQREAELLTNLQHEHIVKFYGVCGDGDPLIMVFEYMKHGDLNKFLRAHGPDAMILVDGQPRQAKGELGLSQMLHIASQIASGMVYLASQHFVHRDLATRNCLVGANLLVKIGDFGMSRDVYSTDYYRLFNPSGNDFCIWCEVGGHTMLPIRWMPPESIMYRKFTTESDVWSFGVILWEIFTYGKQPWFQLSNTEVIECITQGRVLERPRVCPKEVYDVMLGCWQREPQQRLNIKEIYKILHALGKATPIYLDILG
UniProt Q16620, whole entry, looked up: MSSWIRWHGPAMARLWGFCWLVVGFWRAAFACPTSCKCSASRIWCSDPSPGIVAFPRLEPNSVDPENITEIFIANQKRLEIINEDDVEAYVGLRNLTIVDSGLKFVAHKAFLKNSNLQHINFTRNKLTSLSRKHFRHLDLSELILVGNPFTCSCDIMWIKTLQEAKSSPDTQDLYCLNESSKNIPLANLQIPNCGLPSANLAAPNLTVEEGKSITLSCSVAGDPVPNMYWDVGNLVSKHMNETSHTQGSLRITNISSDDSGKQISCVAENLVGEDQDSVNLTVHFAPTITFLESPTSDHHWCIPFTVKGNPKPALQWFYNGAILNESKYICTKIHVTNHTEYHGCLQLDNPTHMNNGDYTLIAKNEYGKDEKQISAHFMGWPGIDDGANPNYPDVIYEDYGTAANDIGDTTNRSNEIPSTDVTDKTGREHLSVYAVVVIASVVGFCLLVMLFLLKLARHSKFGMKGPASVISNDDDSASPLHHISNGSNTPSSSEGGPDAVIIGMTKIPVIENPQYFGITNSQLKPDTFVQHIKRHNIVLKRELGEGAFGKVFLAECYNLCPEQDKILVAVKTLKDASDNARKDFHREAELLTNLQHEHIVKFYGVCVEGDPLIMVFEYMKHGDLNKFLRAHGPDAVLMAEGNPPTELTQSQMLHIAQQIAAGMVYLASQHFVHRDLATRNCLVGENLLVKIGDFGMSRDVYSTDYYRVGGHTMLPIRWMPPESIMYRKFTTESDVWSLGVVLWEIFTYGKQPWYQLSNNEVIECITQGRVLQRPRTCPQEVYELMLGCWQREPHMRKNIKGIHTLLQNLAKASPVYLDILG
UniProt P07333, whole entry: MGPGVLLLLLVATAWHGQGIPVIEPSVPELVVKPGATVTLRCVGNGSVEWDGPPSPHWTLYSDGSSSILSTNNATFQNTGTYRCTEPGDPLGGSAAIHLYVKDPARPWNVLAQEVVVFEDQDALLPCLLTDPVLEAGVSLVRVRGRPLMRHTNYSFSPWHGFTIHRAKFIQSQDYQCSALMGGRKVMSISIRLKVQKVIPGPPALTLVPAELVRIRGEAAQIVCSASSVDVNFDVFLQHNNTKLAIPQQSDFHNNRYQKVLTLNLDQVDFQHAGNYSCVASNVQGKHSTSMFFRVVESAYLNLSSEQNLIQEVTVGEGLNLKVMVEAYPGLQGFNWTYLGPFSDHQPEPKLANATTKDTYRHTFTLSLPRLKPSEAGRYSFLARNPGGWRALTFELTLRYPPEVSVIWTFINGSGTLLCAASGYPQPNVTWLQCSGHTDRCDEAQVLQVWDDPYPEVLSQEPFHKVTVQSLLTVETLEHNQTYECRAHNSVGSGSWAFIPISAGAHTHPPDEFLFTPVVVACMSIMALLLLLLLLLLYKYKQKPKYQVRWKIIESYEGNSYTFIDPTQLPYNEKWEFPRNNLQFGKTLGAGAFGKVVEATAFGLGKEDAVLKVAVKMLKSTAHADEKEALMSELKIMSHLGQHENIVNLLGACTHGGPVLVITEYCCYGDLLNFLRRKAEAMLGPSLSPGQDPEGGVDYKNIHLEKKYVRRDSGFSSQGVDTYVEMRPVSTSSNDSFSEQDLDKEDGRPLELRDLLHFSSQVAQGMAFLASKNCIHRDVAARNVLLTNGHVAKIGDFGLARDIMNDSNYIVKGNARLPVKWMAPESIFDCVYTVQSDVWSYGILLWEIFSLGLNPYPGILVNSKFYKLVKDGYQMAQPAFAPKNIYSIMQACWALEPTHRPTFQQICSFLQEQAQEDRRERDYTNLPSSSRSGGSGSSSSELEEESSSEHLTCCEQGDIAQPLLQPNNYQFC

What all share (conditions): dose 1.0 µmol/L, time 1.0 hrs
The target of assay [1] is NT-3 growth factor receptor (Homo sapiens) (UniProt Q16288).
Assay [2] concerns the target BDNF/NT-3 growth factors receptor (Homo sapiens) (UniProt Q16620).
In assay [3] the target is Macrophage colony-stimulating factor 1 receptor (Homo sapiens) (UniProt P07333).

Regarding `CN1CCN(C(=O)c2cc3cc(NC(=O)c4cc(N5CCC[C@@H]5c5cc(F)ccc5F)c[nH]c4=O)ccc3o2)CC1`, the inhibition worked out at 97% in assay [1], 99% in assay [2] and 103% in assay [3].
